The list shows a part of the results, in another mix than the full data. Activity calls are given as the source filed them. No stated cut-off is given here; in the data, active means inhibition mostly above about 40% (no sharp cut-off); inactive means mostly below about 27%.
molecular target: Sentrin-specific protease 8 (Homo sapiens) (UniProt Q96LD8); assay: blockers of SENP8 deneddylase activity – biochemical, fluorescence, Nedd8 protein substrate, uHTS, primary screen (AID 602440); conditions: recombinant SENP8, Nedd8 substrate fluorescence; at 20 µM; stronger effect = higher value

Amino acid sequences for entries named in this document (tags omitted). A change or cut given only in a name is not applied to a line headed by its entry.
UniProt Q96LD8: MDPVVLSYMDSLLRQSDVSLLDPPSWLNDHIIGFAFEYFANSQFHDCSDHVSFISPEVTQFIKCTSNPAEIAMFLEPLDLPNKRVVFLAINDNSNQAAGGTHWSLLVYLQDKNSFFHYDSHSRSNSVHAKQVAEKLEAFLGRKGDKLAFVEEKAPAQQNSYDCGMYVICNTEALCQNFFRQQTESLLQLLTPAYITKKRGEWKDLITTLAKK

Row | Structure (SMILES) | inhibition
1 | COc1ccccc1CNC(=O)COC(=O)C(O)(c1ccccc1)c1ccccc1 | inactive: 0.5%
2 | CC(C)/C=N\N=C(\N)N[N+](=O)[O-] | inactive: 5.7%
3 | CN(C(=O)Cc1ccc(Cl)c(Cl)c1)[C@@H]1CCCC[C@H]1N1CCCC1 | inactive: 11.4%
4 | CC1(CBr)Cn2c(nc3ccccc3c2=O)S1 (configuration not stated) | inactive: 20.2%
5 | CCOP(=O)(NC(=NC(C)c1ccccc1)NC(C)c1ccccc1)OCC (configuration not stated) | inactive: 15.7%
6 | O=P1(Nc2ccccn2)COc2ccccc2OC1 | inactive: 34.4%
7 | CCC1=CC2Cc3nc4ccc(Cl)cc4c(N)c3C(C1)C2 (configuration not stated) | inactive: -144%
8 | CN(CCCl)Cc1cc(Cl)c(NC2=NCCN2)c(Cl)c1 | inactive: 5.2%
9 | CCOP(=O)(Nc1ccc(C)cn1)OCC | inactive: -10.3%
10 | CC(C)(C)C(=O)NC(Sc1ncccn1)C(Cl)(Cl)Cl (configuration not stated) | inactive: 1.8%
11 | O=P1(N(CCCl)CCCl)NCCC(C(F)(F)F)O1 (configuration not stated) | inactive: 8.6%
12 | Clc1n[nH]nc1-c1nn[nH][15n]1 | inactive: 20.2%
13 | Cc1ccc(S(=O)(=O)N(CCCN)CCCc2c(C)nc(N)[nH]c2=O)cc1 | inactive: 27.1%
14 | O=P1(Nc2ncccn2)COc2ccccc2OC1 | inactive: 13.9%
15 | Nc1cccc([As](=O)(O)c2ccccc2)c1 | inactive: 17.5%
16 | O=P1(Nc2ccc(Br)cn2)COc2ccccc2OC1 | inactive: 3.9%
17 | NS(=O)(=O)c1cccc(NC(=O)COC(=O)C(O)(c2ccccc2)c2ccccc2)c1 | inactive: 11%
18 | O=[As](O)(c1cccs1)c1cccs1 | inactive: 17.9%
19 | Cc1ccc(OCC(=O)OC2CN3CCC2CC3)cc1 (configuration not stated) | inactive: 7.8%
20 | CC1CCC(C(C)C)C(OP(=O)(Nc2ccccn2)c2ccccc2)C1 (configuration not stated) | inactive: 1.3%
21 | Cc1ccc(C(=O)OC2CN3CCC2CC3)cc1 (configuration not stated) | inactive: 10.7%
22 | Cc1nn(-c2ccccc2)c2c1P(=O)(N1CCOCC1)N(C)C(c1ccccc1)=N2 (configuration not stated) | inactive: -0.1%
23 | CN(C)C1(CNC(=O)c2ccc(S(C)(=O)=O)cc2)CCCCC1 | inactive: 29.3%
24 | CCCC1OP(=O)(Nc2ccccc2)OCC1CC (configuration not stated) | inactive: 7.7%
25 | O=C(/C=C/c1ccccc1)OC1CN2CCC1CC2 (configuration not stated) | inactive: 6%
26 | NC(=O)Nc1ccc([As](=O)(O)O)cc1 | inactive: 9.6%

Row | Structure (SMILES) | inhibition
27 | CN(C(=O)Cc1ccccc1)[C@@H]1CC[C@]2(CCCO2)C[C@H]1N1CCCC1 | inactive: 12.1%
28 | CCOP1(=S)c2c(C)nn(CCC#N)c2N=C(c2ccc(F)cc2)N1C (configuration not stated) | inactive: -6.7%
29 | N#CCCN(C(=O)COC(=O)C(O)(c1ccccc1)c1ccccc1)c1ccc(F)cc1 | inactive: 9.4%
30 | CN(C(=O)Cc1ccc(Cl)c(Cl)c1)[C@H]1CC[C@@]2(CCCO2)C[C@@H]1N1CCCC1 | inactive: 3.5%
31 | CN(C)C(=O)c1cc([N+](=O)[O-])cc2c1-c1c(cc([N+](=O)[O-])cc1[N+](=O)[O-])C2=O | active: 96.4%
32 | O=[N+]([O-])c1ccc2c(c1)nnn2O | inactive: 16.8%
33 | O=P(Nc1nccs1)(c1ccccc1)c1nc2ccccc2s1 (configuration not stated) | inactive: 12.7%
34 | O=P(Nc1nccs1)(Oc1ccccc1)Oc1ccccc1 | inactive: 11.8%
35 | CCOP1(=S)c2c(C)nn(CCC#N)c2N=C(c2ccccc2F)N1C (configuration not stated) | inactive: 17.6%
36 | CS(=O)(=O)c1cc([N+](=O)[O-])c2no[n+]([O-])c2c1 | inactive: 11.9%
37 | Nc1ccccc1[As](=O)(O)c1ccccc1 | inactive: 22.1%
38 | O=C(O)COc1ccc([As](=O)(O)O)cc1[N+](=O)[O-] | inactive: 20.7%
39 | Nc1cccc2c([As](=O)(O)O)cccc12 | inactive: -23.2%
40 | Cc1ccc(NCCc2c([N+](=O)[O-])cc([N+](=O)[O-])cc2[N+](=O)[O-])cc1 | inactive: 29%
41 | CCCOP(=S)(Nc1nc(N)cc(=O)[nH]1)OCCC | inactive: 12.5%
42 | CCOP(=O)(Nc1cccc2ccccc12)OCC | inactive: -0.3%
43 | COc1cc(C2NCCC3(OCCO3)C2(C)C)cc(OC)c1OC (configuration not stated) | inactive: 8%
44 | O=C(OC1CN2CCC1CC2)c1ccc(Cl)cc1 (configuration not stated) | inactive: 32.8%
45 | CS(=O)(=O)c1ccc(Cl)c(NC(=O)COC(=O)C(O)(c2ccccc2)c2ccccc2)c1 | inactive: -2.4%
46 | COc1cc(C(=O)NCC2(N3CCOCC3)CCCCC2)cc(Cl)c1OC(C)C | inactive: 3.7%
47 | O=[As](O)(O)c1cccnc1 | inactive: 16.1%
48 | O=[As](O)(c1cccc(O)c1)c1cccc(O)c1 | inactive: 21.5%
49 | Cc1cccc(OCC(=O)OC2CN3CCC2CC3)c1 (configuration not stated) | inactive: 16.6%
50 | O=[N+]([O-])c1cc(Oc2ccc([N+](=O)[O-])cc2C(F)(F)F)cc([N+](=O)[O-])c1 | inactive: 3.3%
51 | COc1ccc(N/C(=N/P(=O)(N2CCOCC2)N2CCOCC2)N2CCOCC2)cc1 | inactive: 21.3%
52 | Cc1c2c(nc3ccccc13)SC(C(Cl)Cl)C2 (configuration not stated) | inactive: -6.5%

Row | Structure (SMILES) | inhibition
53 | Cc1cc(=O)[nH]c(N[N+](=O)[O-])n1 | inactive: 13.9%
54 | O=C(OC1CN2CCC1CC2)C12CC3CC(CC(C3)C1)C2 (configuration not stated) | inactive: 26.3%
55 | O=P1(N(CCCl)CCCl)Nc2ccccc2N1 | inactive: 12.6%
56 | O=P1(N(CCCl)CCCl)OCCCN1CCCl (configuration not stated) | inactive: -1.4%
57 | COc1cc(I)ccc1[As](=O)(O)O | inactive: 10.4%
58 | COc1ccc2nc(NP(=O)(c3ccccc3)c3ccccc3)sc2c1 | inactive: 9.6%
59 | ClCCSc1nnc(-c2cccnc2)o1 | inactive: 17.3%
60 | CC(C)c1ccc(OP(=O)(Nc2ccccn2)Oc2ccccc2F)cc1 (configuration not stated) | inactive: -106%
61 | COC(=O)C1(C)COP(=O)(N2CCCCCC2)OC1 (configuration not stated) | inactive: 9.3%
62 | O=[N+]([O-])c1cc([N+](=O)[O-])c(-c2ccn[nH]2)s1 | active: 33.3%
63 | O=C(OC1CN2CCC1CC2)c1cccc2[nH]cnc12 (configuration not stated) | inactive: 0.6%
64 | CCN(CC)C(=S)SC(NC=O)C(Cl)(Cl)Cl (configuration not stated) | inactive: 22.2%
65 | CC(C)NC(=O)NP(=O)(Oc1ccccc1)Oc1ccccc1 | inactive: 11.1%
66 | COc1cc(C(=O)NCC2(N3CCOCC3)CCCCC2)ccc1OCC(C)C | inactive: 19.6%
67 | O=[N+]([O-])c1ccc(-c2cc([N+](=O)[O-])c(O)c([N+](=O)[O-])c2)cc1 | active: 61.4%
68 | C[As](=O)(O)c1cccc(C(=O)O)c1 | inactive: 10.1%
69 | O=[As](O)(c1ccc(O)cc1)c1ccccc1O | inactive: 10.9%
70 | [N-]=[N+]=NC1CCCCC1NC(=O)c1cc([N+](=O)[O-])cc([N+](=O)[O-])c1 (configuration not stated) | inactive: 13.5%
71 | Cc1ccc(OP(=O)(Nc2ccc([N+](=O)[O-])cn2)Oc2ccc(C)cc2)cc1 | inactive: 13.1%
72 | Cc1ccc2nc3c(c(C)c2c1)CC(C(Cl)Cl)S3 (configuration not stated) | inactive: -7.4%
73 | CCOC(=O)Nc1cccc([As](=O)(O)O)c1 | inactive: 9.9%
74 | O=P(Nc1ccccn1)(c1cccc2ccccc12)c1cccc2ccccc12 | inactive: -40.6%
75 | Cc1cc(SC(NC=O)C(Cl)(Cl)Cl)ncn1 (configuration not stated) | inactive: 14.4%
76 | O=[N+]([O-])c1ccc(Nc2ccc(Oc3ccc([N+](=O)[O-])cc3[N+](=O)[O-])cc2)c([N+](=O)[O-])c1 | inactive: 39.3%
77 | CCOC(=O)Nc1ccc([As](=O)(O)O)c(O)c1 | inactive: 24.3%
78 | O=C(O)C(O)c1ccc(N(CCCl)CCCl)cc1 (configuration not stated) | inactive: 6.7%

Row | Structure (SMILES) | inhibition
79 | CC1CCNP(=O)(N(CCCl)CCCl)O1 (configuration not stated) | inactive: 1%
80 | COP(=O)(OC)N1CC1c1ccccc1 (configuration not stated) | inactive: 11.6%
81 | Cc1cc(SC(NC(=O)c2ccccc2)C(Cl)(Cl)Cl)nc(C(C)C)n1 (configuration not stated) | inactive: -6.7%
82 | CCCCOc1ccc(C(=O)NCC2(N3CCCCC3)CCCCC2)cc1OC | inactive: 4%
83 | CSc1ccc(Nc2c([N+](=O)[O-])cc([N+](=O)[O-])cc2[N+](=O)[O-])cc1 | active: 50.6%
84 | O=C(OC1CN2CCC1CC2)c1cccc([N+](=O)[O-])c1 (configuration not stated) | inactive: 19.8%
85 | CCOC(=O)c1ccc(NC(=O)C(C)(CCl)SC)cc1 (configuration not stated) | inactive: 17.8%
86 | CCC(C)N(CC(C)C)C(=S)SC(NC(C)=O)C(Cl)(Cl)Cl (configuration not stated) | inactive: 3.7%
87 | COC(=O)C1(C)COP(=O)(N2CCCC2)OC1 (configuration not stated) | inactive: 6.9%
88 | COP1(=S)c2c(C)nn(CCC#N)c2N=C(c2ccc(F)cc2)N1C (configuration not stated) | inactive: 23.1%
89 | O=C(O)C(=O)c1ccc(N(CCCl)CCCl)cc1 | inactive: 7.2%
90 | O=C(Nc1ccncc1[N+](=O)[O-])c1ccc([N+](=O)[O-])cc1[N+](=O)[O-] | inactive: 34.3%
91 | O=C(COc1ccccc1)OC1CN2CCC1CC2 (configuration not stated) | inactive: 20%
92 | CCN(/C(=N/P(=O)(N1CCOCC1)N1CCOCC1)N1CCOCC1)c1ccc(OC)cc1 | inactive: 5.7%
93 | C[N+]1=C2C=CC=CC=C2SC12C([N+](=O)[O-])=CC([N+](=O)[O-])=C[C-]2[N+](=O)[O-] (configuration not stated) | active: 83.8%
94 | Nc1ccc([As](=O)(O)c2ccc(N)cc2)cc1 | inactive: 9.2%
95 | c1cc(-c2nn[nH]n2)ccc1-c1nn[nH]n1 | inactive: 17.6%
96 | CC1CCN(C(=O)Oc2c(Cl)cc(Cl)c3cccnc23)CC1 | active: 41.7%
97 | CN(C)C(=O)OCCc1n(C)cc[n+]1C | inactive: 6.8%
98 | CC(C)=N/N=C(\N)N[N+](=O)[O-] | inactive: 5.3%
99 | CC(C)c1nc(Nc2ccccc2)n(P(=O)(N(C)C)N(C)C)n1 | inactive: 10.5%
100 | COc1ccc(C2=NCC(CBr)S2)cc1 (configuration not stated) | inactive: 10.8%
101 | CCc1nc2c(n1)c1c(non1O)c1c2no[n+]1[O-] | inactive: 6.3%
102 | O=[N+]([O-])c1cc([N+](=O)[O-])c(CCNc2ccccc2)c([N+](=O)[O-])c1 | active: 38.7%

Source: PubChem BioAssay AID602440 (Sanford-Burnham Center for Chemical Genomics, 2012)
